Measurements taken from BindingDB's records for 2547074.

Chains of the proteins cited; added tags and fusions are not shown.
UniProt Q99720, whole entry: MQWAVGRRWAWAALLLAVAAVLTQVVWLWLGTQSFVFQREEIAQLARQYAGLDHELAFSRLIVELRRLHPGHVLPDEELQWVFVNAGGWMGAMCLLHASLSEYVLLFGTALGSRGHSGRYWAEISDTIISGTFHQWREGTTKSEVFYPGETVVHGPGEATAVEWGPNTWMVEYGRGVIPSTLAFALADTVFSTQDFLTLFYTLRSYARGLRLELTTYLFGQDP

How the values were obtained:
[1] = molecular target: T1, Sigma non-opioid intracellular receptor 1 (Homo sapiens, UniProt Q99720); assay: Compound was evaluated for binding affinity towards sigma opioid receptor using [3H](+)-3-PPP in guinea pig ileum
[2] = molecular target: T1, Sigma non-opioid intracellular receptor 1; assay: Compound was evaluated for binding affinity towards sigma opioid receptor using [3H]DTG in guinea pig ileum

For `CN(C(=O)Cc1ccc(Cl)c(Cl)c1)[C@@H]1CCCC[C@@H]1N1CCCC1`, the Ki [1] was 0.221 µM and the Ki [2] was 0.118 µM.
